# Values of other authors as cited in PMC6805442, “Discovery of low-molecular weight anti-PD-L1 peptides for cancer immunotherapy” (Journal for Immunotherapy of Cancer, 2019).
# Molecular target: PD-L1
# Conditions: read-out: KD of the PD-1/PD-L1 interaction; ref [23]; cited from earlier work
# Procedure: Binding affinities of the discovered peptides against the recombinant human PD-L1 ECD protein were evaluated using SPR. The PD-L1 protein was immobilized on a CM5 golden chip by the direct amine coupling method. […] Even though the binding affinity of peptides are generally lower than that of antibodies, the very high affinity of antibodies may result in on-targe ...
substance,measurement,value
"PD-1: programmed death-1, natural binding partner of PD-L1",Kd,~4 µM
